Tested on: CYP2
Protocol: Several CYP450 enzymatic activities were investigated in PICM-19H cells to determine the presence and inducible nature of major CYP450 isoforms. […] Cells were washed with PBS and appropriate inducer medium was added for 48 h prior to experimentation.
CYP450 activity was assessed in T25 cultures of PICM-19H cells that were grown for 3 wk post-passage. T25 cultures of APH or HepG2 C3A cells were tested after 3 d of primary culture and at 1 wk post-passage or near confluency, respectively. […] After the initial induction, cells were washed and given a non-fluorescent substrate for CYP1A1, CYP1A2, CYP2, or CYP3A (7-ERF, 7-MRF, MFC, and BFC, respectively). […] Medium samples were collected, centrifuged to remove cell debris (14,000×g, 2 min) and frozen at −80° C. until analyzed. […] Fluorescence was determined in an HTS 7000 plate reader; excitation/emission filter pairs were 530/590 and 410/510 for resorufin and 7-HFC, respectively. To determine relative conjugation activity, fluorescence was also determined directly without incubating first in β-glucuronidase/arylsulphatase. Since conjugated forms of resorufin and 7-HFC are non-fluorescent, the difference between the direct and indirect fluorescence measurements represents the amount of product which had been modified by conjugating enzymes.

Question: CO[C@H]1/C=C/O[C@@]2(C)Oc3c(C)c(O)c4c(O)c(c(/C=N/N5CCN(C)CC5)c(O)c4c3C2=O)NC(=O)/C(C)=C\C=C\[C@H](C)[C@H](O)[C@@H](C)[C@@H](O)[C@@H](C)[C@H](OC(C)=O)[C@@H]1C [Rif, rifampicin] was tested. Which “MFCD activity induction (in words)” value did it give?
Answer: The value was “equally induced”.
